This experiment concerns the target Progesterone Receptor (PR) (Homo sapiens, UniProt P06401). As to the kind of experiment: In vitro functional assay for progesterone receptor (PR) antagonists: inhibition of progesterone-induced alkaline phosphatase expression in T47D cells. Conditions: read-out: PR Ki, antagonist format, 5 nM progesterone, Ki calculated from IC50 with the Cheng-Prusoff equation. An excerpt:
1.0 In vitro Functional Assay for Progesterone Receptor (PR) Antagonists, Agonists and Modulators
The assay for PR antagonism takes advantage of the extensively reported modulation of alkaline phosphatase (AP) expression in human breast T47D mammary carcinoma cells {Beck et al., D. P. (1993). The progesterone antagonist RU486 acquires agonist activity upon stimulation of cAMP signalling pathways. Proc Natl Acad Sci USA 90, 4441-4445; Fensome et al. (2002). New progesterone receptor antagonists: 3,3-disubstituted-5-aryloxindoles. Bioorg Med Chem Lett 12, 3487-3490; Zhang et al., (2002a). 6-Aryl-1,4-dihydro-benzo d1,3oxazin-2-ones: a novel class of potent, selective, and orally active nonsteroidal progesterone receptor antagonists. Journal of Medicinal Chemistry 45, 4379-4382; Zhang et al., (2003). Novel 6-aryl-1,4-dihydrobenzo d oxazine-2-thiones as potent, selective, and orally active nonsteroidal progesterone receptor agonists. Bioorganic & Medicinal Chemistry Letters 13, 1313-1316; Zhang et al., (2002b). Potent nonsteroidal progesterone receptor agonists: synthesis and SAR study of 6-aryl benzoxazines. Bioorganic & Medicinal Chemistry Letters 12, 787-790; Zhang, Z. et al., (2000). In vitro characterization of trimegestone: a new potent and selective progestin. Steroids 65, 637-643}. […] In the absence of progesterone any agonist activity is also observed as an induction of AP activity. […]

By UniProt entry, the sequences of proteins in these tests, tags left out.
UniProt P06401, whole entry: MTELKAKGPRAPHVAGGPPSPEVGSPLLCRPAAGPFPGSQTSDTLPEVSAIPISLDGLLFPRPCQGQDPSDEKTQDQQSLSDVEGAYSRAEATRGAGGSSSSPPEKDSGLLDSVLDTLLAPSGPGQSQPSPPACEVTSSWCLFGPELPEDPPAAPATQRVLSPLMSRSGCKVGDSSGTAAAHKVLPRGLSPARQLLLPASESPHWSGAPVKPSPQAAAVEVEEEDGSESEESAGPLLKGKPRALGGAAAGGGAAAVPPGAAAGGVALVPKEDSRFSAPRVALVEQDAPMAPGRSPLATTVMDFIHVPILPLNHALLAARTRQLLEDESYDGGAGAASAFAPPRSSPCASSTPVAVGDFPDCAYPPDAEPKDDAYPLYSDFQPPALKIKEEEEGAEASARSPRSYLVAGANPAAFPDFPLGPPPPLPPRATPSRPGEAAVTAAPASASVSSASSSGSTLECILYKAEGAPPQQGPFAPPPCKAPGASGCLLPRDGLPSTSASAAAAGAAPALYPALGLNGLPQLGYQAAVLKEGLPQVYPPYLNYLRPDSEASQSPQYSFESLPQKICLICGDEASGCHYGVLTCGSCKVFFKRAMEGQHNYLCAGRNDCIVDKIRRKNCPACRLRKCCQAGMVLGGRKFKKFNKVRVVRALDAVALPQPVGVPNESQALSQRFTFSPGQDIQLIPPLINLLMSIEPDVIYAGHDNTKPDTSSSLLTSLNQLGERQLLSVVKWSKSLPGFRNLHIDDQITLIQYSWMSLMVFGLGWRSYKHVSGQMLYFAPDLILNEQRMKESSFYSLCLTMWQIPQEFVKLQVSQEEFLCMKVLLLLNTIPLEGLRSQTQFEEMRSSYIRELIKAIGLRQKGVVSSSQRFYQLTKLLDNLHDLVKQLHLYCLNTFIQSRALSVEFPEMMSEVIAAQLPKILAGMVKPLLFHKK

Structures are written as SMILES. Bounds are passed on as bounds.

`CC(C)n1nc(-c2ccc(C#N)cc2)c(C2CC2)c1C(=O)N[C@@H]1Cc2nccn2C1`: the Ki was greater than 57.2 nM.
Next, `CC(C)n1nc(-c2ccc(C#N)cc2)c(C2CC2)c1C(=O)N[C@H]1Cc2nccn2C1`: 13.4 nM.

By Ki is commonly meant the dissociation constant of the complex between target and ligand, obtained from inhibition or displacement.

These data come from patent US8232269B2, “Amide compounds useful in therapy” (Pfizer Inc., priority 2008, dated 2012).
